Compound activity: PubChem BioAssay, ICCB-Longwood Screening Facility, Harvard Medical School
An excerpt weighted towards active compounds, which were near 0.7% of everything screened.
Sa growth inh: S. aureus growth inhibition; S. aureus RN4220 growth, OD600, 20 h, 42 °C; active compounds read low; relative growth, % (test concentration not listed); 170,000 tested, 0.53% active;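 active = relative growth at most 50% at the other temperature and 20+ points below 30 °C, or under 10% at both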
HCMV UL50-53 inh: cytomegalovirus nuclear egress complex inhibition | HTRF UL50-UL53 interaction, normalized percent inhibition | inhibition, % (no concentration beside the values) | 190,000 tested, 0.15% active; in the data active = inhibition above about 27%, passing the limit was not always enough
GIV Gai3 FP: GIV-Galpha-i interaction inhibition. AID 1224905. actives 0.42% (n = 210,000). percent of control (FP), % (test concentration not listed). Galpha-i3/FITC-GIV peptide fluorescence polarization, 90 min; stronger effect = lower value; scaled: aluminum fluoride 0%, vehicle 100%;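 active = replicate mean at 85% of control or lower, very high polarization wells dropped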;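 also: wells of about 15 µL received 100 nL stock; the first replicate is given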
GIV Gai FP conf: GIV-Galpha-i3 inhibition, FP confirmation | shares compounds with GIV Gai3 FP | FITC-GIV peptide binding to Galphai3, fluorescence polarization; active compounds read low | fluorescence polarization, mP at 100 µM | 580 tested, 38% active | AID 1259350;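 active = inhibition score of 15 or more, meaning 100 minus mean polarization as percent of control over three replicates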;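 note: lower mP means peptide displaced from Galphai3 so more inhibition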
GIV-Gai AS conf: confirmation of inhibitors of GIV binding to human Galpha-i3; shares compounds with GIV Gai3 FP; AlphaScreen Galphai3-GIV binding, purified proteins, 90 min; active compounds read low; AlphaScreen counts at 100 µM; 580 tested, 39% active;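 active = inhibition score at or above a set limit, where the score is 100 minus the three-replicate mean percent of control signal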
Numbers without * were called inactive; ! = not active in a repeat.

Screening CC(C)NC(=O)Nc1cccc(-c2noc(C3(c4ccccc4)CC3)n2)c1 returned HCMV UL50-53 inh 11 and GIV Gai3 FP 106.
Cc1ccc(COc2ccc(C(c3c(C)[nH]n(-c4ccccc4)c3=O)c3c(C)[nH]n(-c4ccccc4)c3=O)cc2)cc1 was read as GIV Gai3 FP 115.
Screening CCOc1ccc(C(c2c(C)[nH]n(-c3ccccc3)c2=O)c2c(C)[nH]n(-c3ccccc3)c2=O)cc1 returned GIV Gai3 FP 101.
`Cc1[nH]n(-c2ccccc2)c(=O)c1C(c1ccc(C#N)cc1)c1c(C)[nH]n(-c2ccccc2)c1=O` gave GIV Gai3 FP 71*, GIV Gai FP conf 66 and GIV-Gai AS conf 33414.
Cc1[nH]n(-c2ccccc2)c(=O)c1C(c1cc([N+](=O)[O-])ccc1O)c1c(C)[nH]n(-c2ccccc2)c1=O was read as GIV Gai3 FP 76*, GIV Gai FP conf 64 and GIV-Gai AS conf 23681*.
Cc1[nH]n(-c2ccccc2)c(=O)c1C(c1cc(Br)ccc1O)c1c(C)[nH]n(-c2ccccc2)c1=O was read as GIV Gai3 FP 106.
Screening CCCCCCOc1ccc(C(c2c(C)[nH]n(-c3ccccc3)c2=O)c2c(C)[nH]n(-c3ccccc3)c2=O)cc1 returned GIV Gai3 FP 62*, GIV Gai FP conf 67 and GIV-Gai AS conf 11116*.
O=C(c1nn2c(C(F)(F)F)cc(-c3cccs3)nc2c1Br)N1CCCC1 was read as HCMV UL50-53 inh -15 and GIV Gai3 FP 101.
`CC/C=C\C/C=C\C/C=C\C/C=C\CCCCC(=O)OC` gave HCMV UL50-53 inh -17.
For COC(CNC(=O)c1c[nH]c2ccc(S(=O)(=O)N(C)c3ccc(Br)cc3)cc2c1=O)OC the results were GIV Gai3 FP 104.
Cc1ccccc1NC(=O)c1cc2ccccc2o1 was read as Sa growth inh 98 and GIV Gai3 FP 100.
For Cc1ccccc1NC(=O)c1sc2nc(-c3cc4ccccc4oc3=O)[nH]c(=O)c2c1C the results were Sa growth inh 118, HCMV UL50-53 inh 6, GIV Gai3 FP 71*, GIV Gai FP conf 38* and GIV-Gai AS conf 23058.
CC1(C)CC(=O)C(C=NC23CC4CC(CC(C4)C2)C3)=C(O)C1 was read as Sa growth inh 100, HCMV UL50-53 inh -17 and GIV Gai3 FP 99.
Screening COc1ccccc1C(=O)Nc1ccccc1SCc1cc(=O)c2ccccc2[nH]1 returned Sa growth inh 73, GIV Gai3 FP 53*, GIV Gai FP conf 53* and GIV-Gai AS conf 30214.
COc1ccc(C(=O)Nc2ccccc2SCc2cc(=O)c3cccc(C)c3[nH]2)cc1 was read as Sa growth inh 74 and GIV Gai3 FP 106.
Screening N#CC[S+](O)c1ccccc1 (stereo not drawn) returned Sa growth inh 88, HCMV UL50-53 inh -11 and GIV Gai3 FP 101.
`O=C(CSc1nnc2c3sc(N4CCCC4)nc3ncn12)Nc1ccc(F)c(F)c1` gave GIV Gai3 FP 110.
`O=C(CSc1nnc2c3sc(N4CCCC4)nc3ncn12)Nc1ccc2c(c1)OCO2` gave GIV Gai3 FP 30*, GIV Gai FP conf 83 and GIV-Gai AS conf 27926.
`Cc1ccccc1-c1nn2c(=O)cc(N3CCN(C(=O)Nc4ccc(Cl)cc4)CC3)nc2s1` gave HCMV UL50-53 inh 12 and GIV Gai3 FP 101.
Cc1ccc(NC(=O)N2CCN(c3cc(=O)n4nc(-c5ccccc5C)sc4n3)CC2)cc1F was read as HCMV UL50-53 inh -11, GIV Gai3 FP 84*, GIV Gai FP conf 80 and GIV-Gai AS conf 26514.
Screening Cc1ccc(CNC(=O)Cn2ccn3nc(-c4ccc5c(c4)OCO5)cc3c2=O)cc1 returned HCMV UL50-53 inh -30 and GIV Gai3 FP 106.
For NC1CCN(c2ncccn2)CC1 the results were Sa growth inh 93, HCMV UL50-53 inh -21 and GIV Gai3 FP 103.
For CNC(=O)c1cn(-c2ccccc2)c(=O)c2ccccc12 the results were HCMV UL50-53 inh 0 and GIV Gai3 FP 104.
For CC(=O)n1c(=O)c2ccccc2c(=O)n1-c1ccccc1 the results were Sa growth inh 96, HCMV UL50-53 inh -15, GIV Gai3 FP 79*!, GIV Gai FP conf 52* and GIV-Gai AS conf 2364*.
Cc1ccc(Nc2nc(C)c(NC(=O)C3CC(=O)N(c4ccccc4)C3)c(Nc3ccc(C)cc3)n2)cc1 (stereo not drawn) was read as HCMV UL50-53 inh -38 and GIV Gai3 FP 96.

By substructure: those above containing fluorine.
O=C(c1nn2c(C(F)(F)F)cc(-c3cccs3)nc2c1Br)N1CCCC1 was read as HCMV UL50-53 inh -15 and GIV Gai3 FP 101.
`O=C(CSc1nnc2c3sc(N4CCCC4)nc3ncn12)Nc1ccc(F)c(F)c1` gave GIV Gai3 FP 110.
Cc1ccc(NC(=O)N2CCN(c3cc(=O)n4nc(-c5ccccc5C)sc4n3)CC2)cc1F was read as HCMV UL50-53 inh -11, GIV Gai3 FP 84*, GIV Gai FP conf 80 and GIV-Gai AS conf 26514.
